Experimental data: US10682371B2, “Small molecule conjugates specifically activated in tumor microenvironment for targeting and use thereof” (priority 2014, dated 2020)

Tests used:
D121 lung tumor cells = assay type: in vivo; conditions: D121 immunized C57 mice, 13.2 μmol/kg weekly, PDL1 antibody 5 μg/kg where combined
Experimental: 1) D121 lung tumor cells were purchased from ATCC. Cells were cultivated in DMEM culture solution containing 10% fetal bovine serum at 37° C. and 5% CO2. The cells were passaged for every three days and cells within the 15th passage were used.
(§1) 2) Tumor immunization. 5×10^5 D121 lung cancer cells (purchased from ATCC) which were killed by irradiation were intraperitoneally injected to mice. The mice were injected for 3 times, once every two weeks. After immunization, mice were injected with tumor cells and the drugs were administered weekly for 4 weeks.
3) Production of tumor. At day 32, 10^6 live lung tumor cells were subcutaneously injected to the back of the C57 mice immunized by tumor. Treatment began when the tumor grew to 0.3-0.4 cm.
as §1, with “4 weeks. In table 16 below the immune group was immuned with D121 lung tumor cells and the group without dead D121 lung tumor cells was injected with physiological saline as controls.” for “4 weeks.”
3) Production of tumor. After immunization (4 weeks later), 10^6 live lung tumor cells were subcutaneously injected to the back of the C57 mice immunized by tumor. Treatment began when the tumor grew to 0.3-0.4 cm. Tumor size (mm^3) were noted and tumor inhibition rates were calculated.
as §1, with “4 weeks. In the table below the immune group was immuned with D121 lung tumor cells and the group without dead D121 lung tumor cells was injected with physiological saline as controls.” for “4 weeks.”
3) Production of tumor. […]

[1] = test system: Human breast cancer MDA-MB231 cells; test: animal or person; assay type: in vivo, nude mice; conditions: MDA-MB231, nude mice, IV 13.2 μmol/kg once weekly for four weeks
Experimental: 1) Human breast cancer MDA-MB231 cells were purchased from American type culture collection (ATCC) and identified according the specification provided by ATCC. Cells were cultivated in […] (DMEM culture medium) containing 10% fetal bovine serum at 37° C. and 5% CO2. The cells were passaged for every three days and cells within the 15th passage were used.
2) Production of tumor. 5×10^6 MDA-MB231 cells were subcutaneously injected to the back of the nude mice. Mice were randomly grouped after the tumor reached at least 100 mm^3. Then treatment began and the day on which the treatment began was day 1.
3) Course of treatment. […] The drugs were administered once weekly for four weeks.
When R1 is 2-(2-Methoxyethoxy)Acetyl, and R3 is Ala, activation study and efficacy study were carried out by using compounds having different cleavable linker. The study methods are identical to those in Examples 10, 11 and 12. The in vitro activation efficiency was tested by asparagine endopeptidase and the tumor inhibition rate was tested by using human breast cancer MDA-MB231 model. […]

asparagine endopeptidase = target: T1, asparagine endopeptidase (Homo sapiens, UniProt Q99538); conditions: S1-S6, 1 mg/ml; 10 μg/ml acidified asparagine endopeptidase; 37°
T1 sequence (Q99538 26-323 limits assumed): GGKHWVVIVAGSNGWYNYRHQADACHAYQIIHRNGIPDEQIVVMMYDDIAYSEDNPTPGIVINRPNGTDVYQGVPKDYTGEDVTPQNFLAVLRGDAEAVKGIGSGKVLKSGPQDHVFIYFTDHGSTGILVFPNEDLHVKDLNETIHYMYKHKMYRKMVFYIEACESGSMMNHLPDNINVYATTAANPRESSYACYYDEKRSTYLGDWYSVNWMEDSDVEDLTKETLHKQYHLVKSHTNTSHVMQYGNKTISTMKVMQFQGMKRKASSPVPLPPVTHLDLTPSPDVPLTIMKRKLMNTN
Experimental: Reduction of reactant and increase of product were detected by HPLC, thereby comparing the activation efficiency of these compounds.
When R1 is 2-(2-Methoxyethoxy)Acetyl, and R3 is Ala, activation study and efficacy study were carried out by using compounds having different cleavable linker. The study methods are identical to those in Examples 10, 11 and 12. The in vitro activation efficiency was tested by asparagine endopeptidase and the tumor inhibition rate was tested by using human breast cancer MDA-MB231 model.

tumor tissue homogenates = assay type: biochemical
Experimental: (§2) At 37 °C, sample compounds were added into 100 μg acidized tumor tissue homogenates (pH6.0) in a concentration of 1 mg/ml.
(§3) […], sample compounds were added into 100 μg acidized tumor tissue homogenates (pH6.0) in a concentration of 1 mg/ml.
(§4) At 37 °C, sample compounds were added into 100 μg acidized tumor tissue homogenates in a concentration of 1 mg/ml.
(§5) In the experiments, at 37 °C, compounds were added into proteases in 100 μg acidized tumor tissue homogenates in a concentration of 1 mg/ml. […] Meanwhile certain compounds produced in the screening were compared and their activation efficiency in same tissue was analyzed.
(§6) At 37° C., compounds were added into proteases in 100 μg acidized tumor tissue homogenates in a concentration of 1 mg/ml.

[2] = test system: Human fibrosarcoma HT-1080 tumor tissue homogenate; assay type: biochemical; conditions: Human fibrosarcoma HT-1080 tumor tissue homogenate (30 μg/ml); 1 mg/ml compound
Experimental: as §2, §3, §4, §5, §6

[3] = test system: Human ovarian cancer SK-OV-3 tumor tissue homogenate; assay type: biochemical; conditions: Human ovarian cancer SK-OV-3 tumor tissue homogenate (30 μg/ml); 1 mg/ml compound
Experimental: as §2, §3, §4, §5, §6

[4] = test system: Human prostate cancer PC-3 tumor tissue homogenate; assay type: biochemical; conditions: Human prostate cancer PC-3 tumor tissue homogenate (30 μg/ml); 1 mg/ml compound
Experimental: as §2, §3, §4, §5, §6

SMILES: COCCOCC(=O)N[C@H](C(=O)N[C@@H](C)C(=O)N[C@@H](CC(N)=O)C(=O)Nc1ccc(COC(=O)N[C@H]2C[C@H](O[C@H]3C[C@](O)(C(C)=O)Cc4c(O)c5c(c(O)c43)C(=O)c3c(OC)cccc3C5=O)O[C@@H](C)[C@H]2O)cc1)C(C)O (stereo partly drawn) [Compound S4, 4-N—(N—(N—(N-2-(2-methoxyethoxy)acetyl-L-threonyl)-L-alanyl)-L-asparaginyl)-amino benzyl alcohol-daunorubicin-carbamate]
- Inhibitory rate on tumor Day 18 (D121 lung tumor cells): 76.67
- Inhibitory rate on tumor (%) Day 10 ([1]; Day 10): 69%
- Inhibitory rate on tumor (%) Day 24 ([1]; Day 24): 94%
- Activation Efficiencies (%) (asparagine endopeptidase): 84.3%
- Activation efficiency by tumor tissue, in words (tumor tissue homogenates): very high activation efficiency
- Activation Efficiencies (%) [2]: 78.4%
- Activation Efficiencies (%) [3]: 78.4%
- Activation Efficiencies (%) [4]: 78.3%
